Type in all cases: biochemical
Common to all, as to settings: enethiols 6 assayed as sodium salts; 10 min incubation

The chains behind the UniProt entries cited, without tags or fusion partners. Residues count along the entry.
UniProt C7C422, 29-270, looked up, species assumed: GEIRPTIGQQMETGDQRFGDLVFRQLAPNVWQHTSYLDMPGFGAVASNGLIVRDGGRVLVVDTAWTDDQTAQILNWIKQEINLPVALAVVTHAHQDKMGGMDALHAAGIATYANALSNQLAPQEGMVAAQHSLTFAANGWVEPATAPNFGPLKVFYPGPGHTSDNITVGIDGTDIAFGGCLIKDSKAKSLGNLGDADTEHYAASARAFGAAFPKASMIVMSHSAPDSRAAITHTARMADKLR
UniProt P04190, 31-257: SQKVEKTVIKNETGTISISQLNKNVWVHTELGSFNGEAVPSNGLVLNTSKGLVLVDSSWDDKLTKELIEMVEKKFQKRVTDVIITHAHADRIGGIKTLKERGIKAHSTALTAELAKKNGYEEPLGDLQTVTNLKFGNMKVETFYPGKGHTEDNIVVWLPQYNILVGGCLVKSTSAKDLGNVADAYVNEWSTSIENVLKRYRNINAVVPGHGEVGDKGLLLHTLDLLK
UniProt P52699, 19-246, looked up, species assumed: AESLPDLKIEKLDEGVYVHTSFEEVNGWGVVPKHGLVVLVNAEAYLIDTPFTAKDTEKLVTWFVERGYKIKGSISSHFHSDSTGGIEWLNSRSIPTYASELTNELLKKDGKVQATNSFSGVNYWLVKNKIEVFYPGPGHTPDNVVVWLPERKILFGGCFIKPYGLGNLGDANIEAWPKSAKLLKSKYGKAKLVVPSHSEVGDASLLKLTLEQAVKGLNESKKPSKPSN
UniProt Q8G9Q0, entry or part of it: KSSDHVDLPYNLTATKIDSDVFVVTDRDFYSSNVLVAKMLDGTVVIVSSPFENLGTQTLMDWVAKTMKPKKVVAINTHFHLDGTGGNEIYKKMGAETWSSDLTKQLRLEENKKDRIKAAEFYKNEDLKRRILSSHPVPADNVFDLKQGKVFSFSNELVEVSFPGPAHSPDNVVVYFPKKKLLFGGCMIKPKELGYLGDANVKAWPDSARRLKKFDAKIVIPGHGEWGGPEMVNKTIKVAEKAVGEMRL

Experiment [1] deals with T1, NDM-1 (Klebsiella pneumoniae, UniProt C7C422).
T1 construct: made in house
In words: NDM-1 inhibition, fluorogenic cephalosporin (FC5) hydrolysis. On the procedure:
(§1) Inhibition analyses against bacterial MBLs and SBLs were performed as described previously.[22], [24], [26] Residual enzyme activities were determined for a range of inhibitor concentrations. Non-linear regression fitting of IC50 curves was carried out using a three-parameter dose–response curve in GraphPad Prism. Errors in IC50 values are expressed as: σ(logIC50)/logIC50×IC50
(§2) We first screened the inhibitors against a representative set of presently clinically important and other MBLs[22], comprising both Class B1 enzymes (NDM-1, New Delhi MBL-1; VIM-2, Verona integron–encoded MBL-2; BcII, Bacillus cereus II MBL; SPM-1, São Paulo MBL-1; IMP-1, imipenemase MBL-1) and the Class B2 MBL CphA (carbapenem hydrolysing MBL from Aeromonas hydrophila).[22] The latter MBL (CphA) only utilises one active site Zn(II) ion in catalysis, whilst the others normally use two Zn(II) ions.
Figure S4: IC50 curves for NDM-1 inhibition time courses. Residual activities were calculated from the
(§3) initial rate of FC5 hydrolysis after incubation of the enzyme with the inhibitor for 10 minutes. […]

In experiment [2] the target is T2, BcII (Bacillus cereus, UniProt P04190).
T2 construct: made in house
On the procedure: as §1
as §2, with “ions. We also screened the inhibitors against a representative panel of SBLs from different classes (TEM-1, Temoneira β-lactamase-1, class A; CTX-M-15, cefotaxime hydrolysing β-lactamase from Munich 15, class A, extended spectrum β-lactamase (ESBL); AmpC E. coli, class C, and OXA-10, oxacillinase-10, class D).” for “ions.”
Figure S2: IC50 curves for BcII inhibition time courses. Residual activities were calculated from the initial
rate of FC5 hydrolysis after incubation of the enzyme with the inhibitor for 10 minutes. […]

Experiment [3] addresses T3, IMP-1 (Serratia marcescens, UniProt P52699).
T3 construct: made in house
In words: IMP-1 inhibition, fluorogenic cephalosporin (FC5) hydrolysis. As for the experimental part: as §1
as §2, with “ions. We also screened the inhibitors against a representative panel of SBLs from different classes (TEM-1, Temoneira β-lactamase-1, class A; CTX-M-15, cefotaxime hydrolysing β-lactamase from Munich 15, class A, extended spectrum β-lactamase (ESBL); AmpC E. coli, class C, and OXA-10, oxacillinase-10, class D).” for “ions.”
Figure S3: IC50 curves for IMP-1 inhibition time courses. Residual activities were calculated from the
initial rate of FC5 hydrolysis after incubation of the enzyme with the inhibitor for 10 minutes.

Experiment [4] deals with SPM-1 (Pseudomonas aeruginosa, UniProt Q8G9Q0). In words: SPM-1 inhibition, fluorogenic cephalosporin (FC5) hydrolysis. As for the experimental part:
as §1
as §2, with “ions. We also screened the inhibitors against a representative panel of SBLs from different classes (TEM-1, Temoneira β-lactamase-1, class A; CTX-M-15, cefotaxime hydrolysing β-lactamase from Munich 15, class A, extended spectrum β-lactamase (ESBL); AmpC E. coli, class C, and OXA-10, oxacillinase-10, class D).” for “ions.”
Figure S5: IC50 curves for SPM-1 inhibition time courses. Residual activities were calculated from the
as §3

Usually IC50 stands for the concentration needed to halve the response being measured.

For the compound `O=C(O)/C(S)=C/c1ccc(Br)cc1` [Compound 6d], the 50% inhibitory concentration (IC50) in experiment [1] is 6.3 µM. Take `O=C(O)/C(S)=C/c1ccccc1I` [Compound 6i]: in experiment [2], the half-inhibitory concentration (IC50) was 6.3 µM. Turning to `O=C(O)/C(S)=C/c1c2ccccc2cc2ccccc12` [Compound 6r], the concentration for half-maximal inhibition (IC50) in experiment [3] came to 1.8 ± 0.003 µM; in experiment [4], 3.2 ± 0.2 µM. Consider `CN1CCN(NC(=O)CN2C(=O)S/C(=C\c3c(Cl)ccc(Cl)c3Cl)C2=O)CC1` [Compound 10], for which, in experiment [3], the IC50 worked out at 3.2 ± 0.2 µM.

(Values after article PMC6008492, “Structure activity relationship studies on rhodanines and derived enethiol inhibitors of metallo-β-lactamases” (Bioorganic & Medicinal Chemistry, 2018).)
